Like-named read-outs stand apart in the source and are kept apart here.
Assays:
human Nav1.7 = human Nav1.7 (Homo sapiens (Human), UniProt Q15858); experiment: Human Nav1.7 inhibitory activity evaluation (automated patch clamp QPatch16X, HEK293A cells stably expressing human Nav1.7 and human Navβ1); settings: read-out: NaV1.7 IC50
Experimental: Test Example 1: Human Nav1.7 Inhibitory Activity Evaluation
A cell line in which human Nav1.7 and human Navβ1 subunits were stably expressed in HEK293A cells was used. Dulbecco's Modified Eagle Medium (DMEM) supplemeted with 10% fetal bovine serum, 600 μg/ml geneticin, and 2 μg/ml blasticidin S were used as culture medium under the conditions of 37° C. and 5% CO2 in T175 flasks to carry out culturing. When 60-80% confluence was reached, the cells were detached and a cell suspension of about 0.5-5.0×10^6 cells/mL was prepared. The amount of current through human Nav1.7 was recorded using a fully automatic patch clamp device QPatch16X (Sophion Biosciences) at room temperature. As the extracellular solution, the solution of 145 mM NaCl, 4 mM KCl, 1 mM MgCl2, 2 mM CaCl2, 10 mM Glucose, 10 mM 4-(2-hydroxyethyl)-1-piperazine ethanesulfonic acid (HEPES) at pH 7.4 was used. As the intracellular solution, the solution of 135 mM CsF, ⅕ mM glycol ether diaminetetraacetic acid (EGTA)/CsOH, 10 mM HEPES, 10 mM NaCl at pH 7.3 was used. The test compounds were dissolved in dimethyl sulfoxide (DMSO) and diluted with the extracellular solution to attain the DMSO concentration of 0.1% at the time of assay.
The current response was obtained at a sampling frequency of 25 kHz, and noise was removed with a 3 kHz low-pass filter. The holding potential was −100 mV. Correction of the leakage current was carried out by applying a step pulse of −120 mV before the test pulse. In order to investigate inhibitory action of the test compound, the following test pulse was given: Namely, after depolarizing pulse of −10 mV was applied for 50 milliseconds, it was fixed at −120 mV for 500 milliseconds; a potential at which about 30-40% of the channel was inactivated was maintained for 15 seconds, then fixed again at −120 mV for 100 milliseconds, and finally a −10 mV depolarization pulse was given for 50 milliseconds. Test pulses were given before and after the test compound addition.
The inhibitory activity of the test compound was determined based on the amount of inward current generated by the second depolarization pulse, and the 50% inhibitory concentration (IC50) was calculated from the concentration-response curve.

By UniProt entry, the sequences of proteins in these tests, tags left out. Residues count along the entry.
UniProt Q15858, whole entry: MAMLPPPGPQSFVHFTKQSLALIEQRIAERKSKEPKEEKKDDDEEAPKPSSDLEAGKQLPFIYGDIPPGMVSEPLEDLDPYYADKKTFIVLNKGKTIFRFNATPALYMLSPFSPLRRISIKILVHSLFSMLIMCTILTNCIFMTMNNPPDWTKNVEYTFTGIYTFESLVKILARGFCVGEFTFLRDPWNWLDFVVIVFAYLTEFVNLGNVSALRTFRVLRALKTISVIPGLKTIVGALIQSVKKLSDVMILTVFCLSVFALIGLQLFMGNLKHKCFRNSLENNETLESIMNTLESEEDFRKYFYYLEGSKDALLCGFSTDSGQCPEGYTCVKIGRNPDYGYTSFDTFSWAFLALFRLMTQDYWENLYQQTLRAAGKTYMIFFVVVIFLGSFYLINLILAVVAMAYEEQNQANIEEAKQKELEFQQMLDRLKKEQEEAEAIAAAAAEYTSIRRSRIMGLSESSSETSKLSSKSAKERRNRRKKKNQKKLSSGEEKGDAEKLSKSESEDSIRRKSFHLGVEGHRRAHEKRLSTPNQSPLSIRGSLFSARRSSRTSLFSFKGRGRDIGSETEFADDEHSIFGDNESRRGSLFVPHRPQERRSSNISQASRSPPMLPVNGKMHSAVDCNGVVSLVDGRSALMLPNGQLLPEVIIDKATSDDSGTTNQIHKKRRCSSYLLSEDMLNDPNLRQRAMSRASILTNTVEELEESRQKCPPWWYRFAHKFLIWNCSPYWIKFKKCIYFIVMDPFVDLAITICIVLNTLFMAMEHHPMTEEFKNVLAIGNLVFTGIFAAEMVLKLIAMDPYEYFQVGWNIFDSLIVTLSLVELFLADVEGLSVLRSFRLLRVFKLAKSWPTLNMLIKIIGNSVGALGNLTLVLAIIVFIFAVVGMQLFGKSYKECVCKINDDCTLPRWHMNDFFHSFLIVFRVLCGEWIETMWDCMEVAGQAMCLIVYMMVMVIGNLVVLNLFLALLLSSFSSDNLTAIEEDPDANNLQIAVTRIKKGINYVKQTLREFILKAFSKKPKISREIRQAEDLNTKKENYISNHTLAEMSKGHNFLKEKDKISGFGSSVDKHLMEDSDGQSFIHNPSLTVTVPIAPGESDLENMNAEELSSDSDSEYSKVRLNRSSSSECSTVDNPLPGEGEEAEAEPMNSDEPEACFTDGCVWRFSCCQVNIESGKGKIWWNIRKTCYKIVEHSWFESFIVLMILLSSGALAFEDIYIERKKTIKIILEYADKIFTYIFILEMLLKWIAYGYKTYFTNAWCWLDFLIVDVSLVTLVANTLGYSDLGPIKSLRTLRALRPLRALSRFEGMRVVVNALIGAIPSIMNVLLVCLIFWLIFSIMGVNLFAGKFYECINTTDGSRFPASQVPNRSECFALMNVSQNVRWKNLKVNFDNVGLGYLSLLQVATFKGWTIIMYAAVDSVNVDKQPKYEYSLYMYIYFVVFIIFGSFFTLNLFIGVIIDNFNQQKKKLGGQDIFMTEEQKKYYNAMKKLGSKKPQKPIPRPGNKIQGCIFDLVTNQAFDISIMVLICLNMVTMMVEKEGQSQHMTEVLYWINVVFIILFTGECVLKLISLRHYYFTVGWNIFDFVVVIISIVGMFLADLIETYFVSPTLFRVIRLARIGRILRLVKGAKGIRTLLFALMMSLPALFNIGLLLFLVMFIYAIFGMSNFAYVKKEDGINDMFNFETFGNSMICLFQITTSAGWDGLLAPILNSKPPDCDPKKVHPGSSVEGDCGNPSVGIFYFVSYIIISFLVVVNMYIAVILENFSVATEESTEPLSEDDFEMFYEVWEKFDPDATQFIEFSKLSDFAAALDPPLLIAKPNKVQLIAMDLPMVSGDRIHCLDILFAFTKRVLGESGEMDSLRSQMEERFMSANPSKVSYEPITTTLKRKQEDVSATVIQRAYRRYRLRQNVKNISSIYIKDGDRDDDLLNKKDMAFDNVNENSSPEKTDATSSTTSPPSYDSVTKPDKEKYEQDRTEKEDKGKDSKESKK
UniProt Q14524, whole entry: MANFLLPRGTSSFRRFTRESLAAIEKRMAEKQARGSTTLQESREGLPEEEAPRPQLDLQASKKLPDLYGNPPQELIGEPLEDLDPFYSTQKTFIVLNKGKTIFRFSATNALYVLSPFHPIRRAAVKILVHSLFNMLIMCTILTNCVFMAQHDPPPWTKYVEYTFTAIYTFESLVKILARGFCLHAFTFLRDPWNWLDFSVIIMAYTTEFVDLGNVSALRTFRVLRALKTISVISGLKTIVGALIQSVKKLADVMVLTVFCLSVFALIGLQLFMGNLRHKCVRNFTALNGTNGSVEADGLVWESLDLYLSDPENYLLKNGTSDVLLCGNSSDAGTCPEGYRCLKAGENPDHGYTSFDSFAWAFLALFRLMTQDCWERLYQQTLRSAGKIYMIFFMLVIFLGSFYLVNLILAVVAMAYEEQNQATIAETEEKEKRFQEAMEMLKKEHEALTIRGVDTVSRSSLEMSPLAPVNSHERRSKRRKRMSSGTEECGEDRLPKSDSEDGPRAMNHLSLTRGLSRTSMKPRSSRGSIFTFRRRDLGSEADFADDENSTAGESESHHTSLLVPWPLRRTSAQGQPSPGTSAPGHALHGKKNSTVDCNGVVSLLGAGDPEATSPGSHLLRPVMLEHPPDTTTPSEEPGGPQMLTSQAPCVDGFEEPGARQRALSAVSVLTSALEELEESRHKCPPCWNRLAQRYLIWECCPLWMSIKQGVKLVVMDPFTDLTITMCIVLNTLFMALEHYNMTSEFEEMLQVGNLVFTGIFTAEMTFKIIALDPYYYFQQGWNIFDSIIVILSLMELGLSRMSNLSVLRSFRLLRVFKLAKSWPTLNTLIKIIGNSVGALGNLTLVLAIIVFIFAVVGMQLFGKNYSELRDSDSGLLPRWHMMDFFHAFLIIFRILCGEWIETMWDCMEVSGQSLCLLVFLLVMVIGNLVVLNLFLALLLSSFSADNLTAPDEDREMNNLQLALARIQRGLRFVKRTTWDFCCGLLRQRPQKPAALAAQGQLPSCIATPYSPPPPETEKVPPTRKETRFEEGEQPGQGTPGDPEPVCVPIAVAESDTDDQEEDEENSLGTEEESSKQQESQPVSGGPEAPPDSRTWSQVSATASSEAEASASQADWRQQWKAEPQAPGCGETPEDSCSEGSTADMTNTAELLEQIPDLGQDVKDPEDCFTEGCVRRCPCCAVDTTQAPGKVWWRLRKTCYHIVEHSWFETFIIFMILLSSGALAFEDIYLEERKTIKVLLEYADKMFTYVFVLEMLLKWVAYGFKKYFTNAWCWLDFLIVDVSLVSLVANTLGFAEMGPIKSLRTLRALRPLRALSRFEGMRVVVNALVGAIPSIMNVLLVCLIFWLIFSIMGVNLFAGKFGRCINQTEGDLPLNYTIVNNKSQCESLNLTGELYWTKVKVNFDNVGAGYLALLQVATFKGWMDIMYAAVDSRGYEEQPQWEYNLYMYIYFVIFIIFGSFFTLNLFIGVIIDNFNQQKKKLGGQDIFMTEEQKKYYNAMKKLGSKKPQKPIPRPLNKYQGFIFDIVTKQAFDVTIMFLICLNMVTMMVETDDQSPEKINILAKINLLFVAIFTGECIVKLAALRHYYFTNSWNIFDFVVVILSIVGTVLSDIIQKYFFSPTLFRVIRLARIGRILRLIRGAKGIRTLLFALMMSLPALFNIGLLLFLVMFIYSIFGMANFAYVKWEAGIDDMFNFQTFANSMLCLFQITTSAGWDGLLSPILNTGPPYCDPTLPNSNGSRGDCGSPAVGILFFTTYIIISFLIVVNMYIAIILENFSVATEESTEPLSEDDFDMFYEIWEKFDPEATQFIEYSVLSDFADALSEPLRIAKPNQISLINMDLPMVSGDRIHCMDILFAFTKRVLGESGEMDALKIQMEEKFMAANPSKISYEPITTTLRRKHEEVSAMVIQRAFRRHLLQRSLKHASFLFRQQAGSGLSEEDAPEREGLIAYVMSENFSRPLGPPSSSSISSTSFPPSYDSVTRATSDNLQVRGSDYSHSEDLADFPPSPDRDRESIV
UniProt Q07699, 19-218 partner limits assumed: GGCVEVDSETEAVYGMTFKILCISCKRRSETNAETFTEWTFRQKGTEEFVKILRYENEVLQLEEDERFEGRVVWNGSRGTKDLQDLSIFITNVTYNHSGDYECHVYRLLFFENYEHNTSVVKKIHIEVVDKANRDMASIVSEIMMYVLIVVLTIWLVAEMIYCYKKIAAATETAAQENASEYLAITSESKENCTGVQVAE

human Nav1.5 = human Nav1.5 (Homo sapiens (Human), UniProt Q14524); experiment: Human Nav1.5 inhibitory activity evaluation (automated patch clamp QPatch16X, HEK293 cells stably expressing human Nav1.5); settings: read-out: NaV1.5 IC50; human Nav1.5, automated patch clamp
Experimental: Test Example 2: Human Nav1.5 Inhibitory Activity Evaluation
A cell line in which human Nav1.5 was stably expressed in HEK293 cells was used. DMEM supplemeted with 15% fetal bovine serum, 500 μg/ml geneticin, 100 units/ml penicillin, 100 μg/ml streptomycin, 20 mM HEPES was used as culture medium under the conditions of 37° C. and 5% CO2 in T175 flasks to carry out culturing. When 60-80% confluence was reached, a cell suspension of about 0.5-5.0×10^6 cells/mL was prepared. The amount of current through human Nav1.5 was recorded using a fully automatic patch clamp device QPatch16X at room temperature. As the extracellular solution, 145 mM NaCl, 4 mM KCl, 1 mM MgCl2, 2 mM CaCl2, 10 mM Glucose, and 10 mM HEPES at pH 7.4 was used. As the intracellular solution, 135 mM CsF, ⅕ mM EGTA/CsOH, 10 mM HEPES, and 10 mM NaCl at pH 7.3 was used. The test compounds were dissolved in DMSO and diluted with the extracellular solution to attend the DMSO concentration of 0.1% at the time of assay.
The current response was obtained at a sampling frequency of 25 kHz, and noise was removed with a 3 kHz low-pass filter. The holding potential was −80 mV. Correction of the leakage current was carried out by applying a step pulse of −100 mV before the test pulse. In order to investigate human Nav1.5 inhibitory effect of the test compound, test pulses imitating the action potential of cardiomyocytes were continuously given 20 times. The test pulses were given before and after the test compound addition.
The inhibitory activity of the test compound was determined based on the amount of inward current generated by the 20th depolarization pulse, and the 50% inhibitory concentration (IC50) was calculated from the concentration-response curve.

[1] = human Nav1.7, automated patch clamp

Row | IC50 (human Nav1.7; HEK293A cells stably expressing human Nav1.7 and human Navβ1, automated patch clamp QPatch16X) | SMILES | IC50 (human Nav1.7; [1]) | IC50 (human Nav1.5)
1 |  | O=C(N[C@H]1COc2ccc(Cl)cc2C1)c1cn2c(n1)OC(COCC1CC1)C2 (stereo partly drawn) | < 10000 nM | 
2 |  | N#Cc1ccc2c(c1)C[C@@H](NC(=O)c1cc3n(n1)CC(CC1CCOCC1)O3)CO2 (single isomer, unassigned) | < 10000 nM | 
3 |  | O=C(N[C@H]1COc2ccc(C(F)(F)F)cc2C1O)c1cc2n(n1)CCC(COCC1CC1)O2 (single isomer, unassigned) | < 10000 nM | 
4 |  | O=C(N[C@H]1COc2ccc(C(F)(F)F)cc2C1)c1cc2n(n1)CC(CCN1CC(F)(F)C1)O2 (single isomer, unassigned) | < 1000 nM | 1000 to 3000 nM
5 |  | O=C(N[C@H]1COc2ccc(Cl)cc2C1)c1nc2n(c1-c1ccn[nH]1)CCOC2 | < 1000 nM | 
6 |  | O=C(N[C@H]1COc2ccc(C(F)(F)F)cc2C1F)c1cc2n(n1)CCC(C(F)F)O2 (single isomer, unassigned) | < 1000 nM | 
7 |  | O=C(N[C@H]1COc2ccc(C(F)(F)F)cc2C1O)c1cc2n(n1)CC(COCC1CC1)O2 (single isomer, unassigned) |  | > 3000 nM
8 |  | O=C(N[C@H]1COc2ccc(C(F)(F)F)cc2C1)c1nn2c(c1-c1ccn[nH]1)C(=O)N(CC(F)(F)F)CC2 | < 10000 nM | 
9 |  | O=C(N[C@H]1COc2ccc(CC(F)F)cc2C1)c1cc2n(n1)CC(COCC(F)(F)F)O2 (stereo partly drawn) | < 1000 nM | > 3000 nM
10 |  | O=C(N[C@H]1COc2ccc(Cl)cc2C1)c1cc2n(n1)CCN(C1(c3ccccn3)CC1)C2 | < 10000 nM | 1000 to 3000 nM
11 | < 1000 nM | O=C(N[C@H]1COc2ccc(Cl)cc2C1)c1cc2n(n1)CCC(COCc1ccccc1)O2 (stereo partly drawn) |  | 
12 |  | N#Cc1ccc2c(c1)C[C@@H](NC(=O)c1cc3n(n1)CCC(COCC(F)(F)F)CO3)CO2 (single isomer, unassigned) | < 10000 nM | > 3000 nM
13 |  | O=C(N[C@H]1COc2ccc(Cl)cc2C1)c1cc2n(n1)CCN(C1(CC(F)(F)F)CC1)C2 | < 1000 nM | < 1000 nM
